Tests used:
Assay type in all cases: binding
Conditions in all cases: 125I-labelled Tyr2 analog tested as radioligand on cloned receptor
human SSTR1 = target: T1, human SSTR1 (Homo sapiens, UniProt P30872); test: Displacement of 125I-[Leu8,D-Trp22,Tyr25]-somatostatin-28 from cloned SSTR1 (receptor autoradiography on membrane pellets)
T1 construct: expressed in transfected cells; host or cells: CHO-K1 cells and CCL39 cells
Description: (§1) Generally, recombinant cells expressing the receptor are washed and homogenized to prepare a crude protein homogenate in a suitable buffer, as known in the art. In a typical assay, an amount of protein from the cell homogenate is placed into a small volume of an appropriate assay buffer at an appropriate pH. Candidate substances, such as potential SRIF agonists and antagonists, are added to the admixture in convenient concentrations, and the interaction between the candidate substance and the receptor polypeptide is monitored.
(§2) Receptor binding assays are performed on cloned SRIF receptors as generally set forth in Raynor et al. supra. Using such assays, one can generate KD values which are indicative of the concentration of a ligand necessary to occupy one-half (50%) of the binding sites on a selected amount of a receptor or the like, or alternatively, competitive assays can generate IC50 values which are indicative of the concentration of a competitive ligand necessary to displace a saturation concentration of a target ligand being measured from 50% of binding sites. […]
(§3) Receptor autoradiography is performed on 20 μm thick cryostat sections of the membrane pellets, mounted on microscope slides, and then stored at −20° C. […] IC50 values are calculated after quantification of the data using a computer-assisted image processing system as known in this art. […]

By UniProt entry, the sequences of proteins in these tests, tags left out. Where a name states a change or a piece, a line headed by the entry shows the natural chain unless it says otherwise.
UniProt P30872: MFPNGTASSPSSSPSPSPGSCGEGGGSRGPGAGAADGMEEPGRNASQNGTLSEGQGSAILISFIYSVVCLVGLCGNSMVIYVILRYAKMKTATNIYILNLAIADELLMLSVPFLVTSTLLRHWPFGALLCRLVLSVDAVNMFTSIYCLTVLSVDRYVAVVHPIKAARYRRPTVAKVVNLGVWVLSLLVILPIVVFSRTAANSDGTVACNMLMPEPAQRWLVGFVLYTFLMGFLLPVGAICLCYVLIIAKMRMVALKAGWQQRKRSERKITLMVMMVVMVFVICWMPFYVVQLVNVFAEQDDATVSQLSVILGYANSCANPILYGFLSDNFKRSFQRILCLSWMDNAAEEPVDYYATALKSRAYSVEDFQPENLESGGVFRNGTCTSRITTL
UniProt P31391: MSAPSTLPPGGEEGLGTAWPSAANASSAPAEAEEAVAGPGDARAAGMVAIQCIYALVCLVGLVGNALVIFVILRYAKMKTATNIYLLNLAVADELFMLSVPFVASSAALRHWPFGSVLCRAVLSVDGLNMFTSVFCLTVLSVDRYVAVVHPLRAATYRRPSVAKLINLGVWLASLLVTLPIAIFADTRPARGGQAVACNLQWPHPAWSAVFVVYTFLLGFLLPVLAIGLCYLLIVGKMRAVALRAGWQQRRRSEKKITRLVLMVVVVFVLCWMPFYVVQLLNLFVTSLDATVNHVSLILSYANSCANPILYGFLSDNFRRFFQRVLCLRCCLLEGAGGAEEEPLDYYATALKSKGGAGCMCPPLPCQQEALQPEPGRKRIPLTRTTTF
UniProt P30874: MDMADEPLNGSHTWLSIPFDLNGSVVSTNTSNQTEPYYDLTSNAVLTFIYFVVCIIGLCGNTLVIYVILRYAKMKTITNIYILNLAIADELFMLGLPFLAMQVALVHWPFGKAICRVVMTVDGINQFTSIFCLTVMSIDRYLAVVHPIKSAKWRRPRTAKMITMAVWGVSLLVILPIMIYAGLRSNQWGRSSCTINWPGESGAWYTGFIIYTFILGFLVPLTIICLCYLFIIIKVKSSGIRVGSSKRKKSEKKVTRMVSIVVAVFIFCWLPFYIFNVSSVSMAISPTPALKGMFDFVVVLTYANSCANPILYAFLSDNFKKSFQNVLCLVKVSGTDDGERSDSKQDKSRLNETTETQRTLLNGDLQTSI

human SSTR4 = target: T2, human SSTR4 (Homo sapiens, UniProt P31391); test: Displacement of 125I-[Leu8,D-Trp22,Tyr25]-somatostatin-28 from cloned SSTR4 (receptor autoradiography on membrane pellets)
T2 construct: expressed in transfected cells; host or cells: CHO-K1 cells and CCL39 cells
Description: as §1, §2, §3

human SSTR2 = target: T3, human SSTR2 (Homo sapiens, UniProt P30874); test: Displacement of 125I-[Leu8,D-Trp22,Tyr25]-somatostatin-28 from cloned SSTR2 (receptor autoradiography on membrane pellets)
T3 construct: expressed in transfected cells; host or cells: CHO-K1 cells and CCL39 cells
Description: as §1, §2, §3

(cyclo)H-Tyr-Cys-Phe-Phe-D-Agl(Me,2Np)-Lys-Thr-Phe-Cys-OH [Peptide No. 4]
No specific binding: binding of the radioiodinated analog to SSTR1 (human SSTR1) | binding of the radioiodinated analog to SSTR4 (human SSTR4) | binding of the radioiodinated analog to SSTR2 (human SSTR2)
